Experimental data as given in patent publication US20090076075A1, “QUINOLINE DERIVATIVES” (priority 2006, published 2009).

By UniProt entry, the sequences of proteins in these tests, tags left out. Residues count along the entry.
UniProt P09619, 33-1106 limits assumed: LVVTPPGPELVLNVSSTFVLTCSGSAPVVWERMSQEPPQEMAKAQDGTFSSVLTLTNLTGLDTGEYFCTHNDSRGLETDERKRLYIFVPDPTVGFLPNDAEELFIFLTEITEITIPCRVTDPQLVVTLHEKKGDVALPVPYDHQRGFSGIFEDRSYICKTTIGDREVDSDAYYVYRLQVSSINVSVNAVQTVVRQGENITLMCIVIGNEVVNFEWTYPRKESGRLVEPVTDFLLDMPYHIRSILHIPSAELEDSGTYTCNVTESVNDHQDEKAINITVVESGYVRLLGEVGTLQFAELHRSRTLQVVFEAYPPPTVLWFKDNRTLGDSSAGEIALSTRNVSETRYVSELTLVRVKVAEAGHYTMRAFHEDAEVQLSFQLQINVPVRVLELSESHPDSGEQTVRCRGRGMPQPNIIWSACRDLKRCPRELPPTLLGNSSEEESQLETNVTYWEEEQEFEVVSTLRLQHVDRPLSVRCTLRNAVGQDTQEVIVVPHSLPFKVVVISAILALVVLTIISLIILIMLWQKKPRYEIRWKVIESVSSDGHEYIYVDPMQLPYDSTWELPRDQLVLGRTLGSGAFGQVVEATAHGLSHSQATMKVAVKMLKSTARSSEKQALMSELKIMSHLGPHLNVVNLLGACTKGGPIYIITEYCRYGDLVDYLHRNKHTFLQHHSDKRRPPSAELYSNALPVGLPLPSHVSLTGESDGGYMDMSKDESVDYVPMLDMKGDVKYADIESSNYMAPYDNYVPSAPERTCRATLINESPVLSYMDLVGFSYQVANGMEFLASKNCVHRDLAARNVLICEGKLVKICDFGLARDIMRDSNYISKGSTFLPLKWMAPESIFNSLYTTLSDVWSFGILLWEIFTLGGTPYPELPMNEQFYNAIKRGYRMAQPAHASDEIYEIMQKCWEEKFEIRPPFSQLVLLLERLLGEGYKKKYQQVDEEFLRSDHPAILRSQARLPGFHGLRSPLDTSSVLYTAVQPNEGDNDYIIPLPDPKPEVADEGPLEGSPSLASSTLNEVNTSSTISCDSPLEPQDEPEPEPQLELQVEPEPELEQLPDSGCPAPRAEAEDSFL

Biological target: PDGFRβ (Homo sapiens, UniProt P09619)
Test: In vitro phospho-Tyr751 PDGFRβ ELISA assay (Test (b))
Format: cell-based
Details: read-out: IC50 versus phospho-Tyr751 formation in PDGFRβ, MG63 osteosarcoma cells stimulated with PDGFBB

IC50: 1000 nM
Compound: CCc1cc(NC(=O)Cc2ccc(Oc3ccnc4cc(OC)c(OC)cc34)cn2)n[nH]1
